Paper PMC9359912, “Pathogenic bacteria remodel central metabolic enzyme to build a cyclopropanol warhead” (Nature Chemistry, 2022)

Tested on: C[S+](C)CC[C@@H](O)[C@@H](O)C(=O)[O-]
Assay: purified protein
Settings: pH 7.5; 30.0 °C

Question: Which Km does the source give for BurG (Burkholderia thailandensis E264) here?
Answer: Its Km is 110 ± 20 µM.
